Experimental data taken from US20230000842A1, “METHODS OF TREATING CARTILAGE DISORDERS THROUGH INHIBITION OF CLK AND DYRK” (SAMUMED, LLC, priority 2019, published 2023).

The chains behind the UniProt entries cited, without tags or fusion partners.
UniProt P49760, whole entry: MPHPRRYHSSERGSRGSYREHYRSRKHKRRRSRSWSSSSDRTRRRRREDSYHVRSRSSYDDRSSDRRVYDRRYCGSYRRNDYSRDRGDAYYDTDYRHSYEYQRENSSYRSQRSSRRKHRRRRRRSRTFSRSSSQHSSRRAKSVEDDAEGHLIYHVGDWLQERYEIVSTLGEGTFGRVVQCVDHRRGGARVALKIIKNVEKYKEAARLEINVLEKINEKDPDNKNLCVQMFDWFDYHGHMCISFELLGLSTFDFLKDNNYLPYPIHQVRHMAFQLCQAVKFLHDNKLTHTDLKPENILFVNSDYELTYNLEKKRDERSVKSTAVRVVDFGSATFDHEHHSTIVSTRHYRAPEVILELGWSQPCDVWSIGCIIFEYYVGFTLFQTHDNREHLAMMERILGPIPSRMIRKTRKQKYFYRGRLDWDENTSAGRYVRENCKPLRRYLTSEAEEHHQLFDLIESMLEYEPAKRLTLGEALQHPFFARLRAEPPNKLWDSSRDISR

Target: CLK2 kinase (Homo sapiens, UniProt P49760)
Assay: CLK2 kinase activity assay (Z-lyte FRET);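 note: FRET read-out as coumarin to fluorescein emission ratio, unphosphorylated peptide as 0% and phosphorylated peptide as 100% controls, duplicate reactions, non-linear regression fit of dose-response curves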
Format: biochemical
Conditions: Z-lyte Ser/Thr 6 peptide, 60 μM ATP, 1 h at room temperature

CN1CCN(c2cc(C(=O)Nc3cc4cc(-c5cnn(C)c5)ccc4cn3)ccn2)CC1 [compound 545]
EC50: 1 nM
